In general, IC50 refers to the concentration that inhibits the measured activity by half.

Chains of the proteins cited; added tags and fusions are not shown. A line that says so, or that is headed by a name, gives the form on record, which may keep a tag or linker. Residues count along the entry.
UniProt P42858, 1-3142 with tags or gaps with the stated changes: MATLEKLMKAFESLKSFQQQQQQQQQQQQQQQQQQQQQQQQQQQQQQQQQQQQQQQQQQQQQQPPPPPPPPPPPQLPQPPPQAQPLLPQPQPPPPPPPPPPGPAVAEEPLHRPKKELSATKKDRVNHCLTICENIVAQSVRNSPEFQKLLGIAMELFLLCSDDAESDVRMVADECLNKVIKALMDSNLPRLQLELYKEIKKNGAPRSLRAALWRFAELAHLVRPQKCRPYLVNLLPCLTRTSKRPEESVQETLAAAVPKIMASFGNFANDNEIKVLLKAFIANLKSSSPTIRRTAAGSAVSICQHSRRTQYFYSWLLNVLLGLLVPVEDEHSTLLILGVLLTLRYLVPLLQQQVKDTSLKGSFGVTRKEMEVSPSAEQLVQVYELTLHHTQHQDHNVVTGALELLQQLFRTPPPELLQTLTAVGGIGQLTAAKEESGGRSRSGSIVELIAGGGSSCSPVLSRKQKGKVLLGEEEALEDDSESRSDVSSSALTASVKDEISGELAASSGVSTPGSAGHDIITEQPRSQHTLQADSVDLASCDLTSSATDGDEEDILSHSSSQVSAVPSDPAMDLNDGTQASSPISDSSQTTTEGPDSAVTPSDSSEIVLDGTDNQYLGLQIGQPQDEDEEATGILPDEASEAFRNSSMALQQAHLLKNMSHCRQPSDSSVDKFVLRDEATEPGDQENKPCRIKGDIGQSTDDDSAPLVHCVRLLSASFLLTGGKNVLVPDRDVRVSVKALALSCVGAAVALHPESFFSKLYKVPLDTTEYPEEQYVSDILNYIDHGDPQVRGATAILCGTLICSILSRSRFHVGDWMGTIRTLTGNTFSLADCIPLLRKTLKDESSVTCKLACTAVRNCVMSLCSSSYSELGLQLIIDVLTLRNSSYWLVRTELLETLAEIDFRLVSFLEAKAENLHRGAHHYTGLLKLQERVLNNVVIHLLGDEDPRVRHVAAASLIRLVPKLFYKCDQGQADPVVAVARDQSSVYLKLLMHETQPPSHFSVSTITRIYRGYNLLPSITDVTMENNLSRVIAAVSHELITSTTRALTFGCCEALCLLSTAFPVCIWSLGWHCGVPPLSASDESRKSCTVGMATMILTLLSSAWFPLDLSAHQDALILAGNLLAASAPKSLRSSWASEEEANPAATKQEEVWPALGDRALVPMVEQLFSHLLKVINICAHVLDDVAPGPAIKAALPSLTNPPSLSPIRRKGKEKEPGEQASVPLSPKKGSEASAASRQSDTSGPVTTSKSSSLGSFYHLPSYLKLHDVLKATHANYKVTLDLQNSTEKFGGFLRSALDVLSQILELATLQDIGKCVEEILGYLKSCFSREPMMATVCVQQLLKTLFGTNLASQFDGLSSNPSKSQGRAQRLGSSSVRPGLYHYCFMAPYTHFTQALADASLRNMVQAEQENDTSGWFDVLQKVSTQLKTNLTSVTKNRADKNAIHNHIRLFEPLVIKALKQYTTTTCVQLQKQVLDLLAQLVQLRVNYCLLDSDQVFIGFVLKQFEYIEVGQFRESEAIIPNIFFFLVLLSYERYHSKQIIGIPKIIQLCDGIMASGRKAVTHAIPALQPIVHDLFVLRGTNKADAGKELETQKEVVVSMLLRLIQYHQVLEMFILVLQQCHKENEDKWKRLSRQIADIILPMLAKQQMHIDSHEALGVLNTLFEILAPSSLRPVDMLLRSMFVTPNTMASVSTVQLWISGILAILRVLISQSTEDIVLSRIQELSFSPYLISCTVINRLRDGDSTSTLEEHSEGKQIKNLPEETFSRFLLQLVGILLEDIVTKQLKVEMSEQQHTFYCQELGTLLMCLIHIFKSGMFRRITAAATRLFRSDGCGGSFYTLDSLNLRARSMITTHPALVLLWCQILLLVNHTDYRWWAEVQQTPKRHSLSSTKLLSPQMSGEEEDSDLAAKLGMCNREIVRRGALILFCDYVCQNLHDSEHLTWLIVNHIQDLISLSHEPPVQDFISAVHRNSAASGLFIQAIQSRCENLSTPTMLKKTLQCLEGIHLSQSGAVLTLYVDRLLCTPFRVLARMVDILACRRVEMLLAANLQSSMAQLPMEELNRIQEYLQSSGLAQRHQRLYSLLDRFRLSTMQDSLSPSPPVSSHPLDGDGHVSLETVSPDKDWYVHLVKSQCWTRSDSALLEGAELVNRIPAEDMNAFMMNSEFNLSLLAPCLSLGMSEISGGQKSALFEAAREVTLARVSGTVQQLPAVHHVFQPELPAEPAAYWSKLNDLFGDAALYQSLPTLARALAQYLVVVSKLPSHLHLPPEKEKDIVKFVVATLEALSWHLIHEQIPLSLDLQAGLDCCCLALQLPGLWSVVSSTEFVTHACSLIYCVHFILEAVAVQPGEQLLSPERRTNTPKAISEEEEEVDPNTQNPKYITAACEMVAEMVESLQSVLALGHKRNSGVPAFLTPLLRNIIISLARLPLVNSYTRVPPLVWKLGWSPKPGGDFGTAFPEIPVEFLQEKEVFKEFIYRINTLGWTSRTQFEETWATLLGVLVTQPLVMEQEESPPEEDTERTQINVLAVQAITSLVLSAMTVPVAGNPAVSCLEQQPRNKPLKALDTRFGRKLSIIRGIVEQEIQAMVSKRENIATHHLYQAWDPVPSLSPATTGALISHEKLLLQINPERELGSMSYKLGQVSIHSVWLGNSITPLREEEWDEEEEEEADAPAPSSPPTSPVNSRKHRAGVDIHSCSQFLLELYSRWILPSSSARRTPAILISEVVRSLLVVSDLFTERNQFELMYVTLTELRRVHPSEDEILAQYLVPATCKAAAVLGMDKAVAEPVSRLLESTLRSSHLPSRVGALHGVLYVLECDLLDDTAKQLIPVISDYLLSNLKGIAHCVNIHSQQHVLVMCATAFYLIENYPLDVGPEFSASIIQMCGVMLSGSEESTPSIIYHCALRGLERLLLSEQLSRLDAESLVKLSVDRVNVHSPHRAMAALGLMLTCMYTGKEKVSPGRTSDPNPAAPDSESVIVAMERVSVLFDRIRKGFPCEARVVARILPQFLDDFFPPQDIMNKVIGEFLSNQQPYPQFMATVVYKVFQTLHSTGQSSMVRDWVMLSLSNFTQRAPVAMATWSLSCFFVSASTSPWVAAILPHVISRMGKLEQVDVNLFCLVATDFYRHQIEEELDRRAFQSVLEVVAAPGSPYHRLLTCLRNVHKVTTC

This note sets out measurements from patent US12258355B2, “Probes for imaging huntingtin protein” (CHDI Foundation, Inc., priority 2014, dated 2025).

In the assay the target is Q46 protein aggregates (Homo sapiens, UniProt P42858). The assay is described as follows: Q46 radioligand binding assay (RBA). The note with it: read-out: RBA IC50 activity, 10 nM ligand [3H3]MK-3328. The method, then: Q46 Radioligand Binding Assay
For radioligand binding assays (RBA) GST-Q46 protein was generated based on a previous publication (Scherzinger et al. Cell, Vol. 90, 549-558, Aug. 8, 1997). For experiments 33 μM GST-Q46 was incubated with 150 μg/mL thrombin in assay buffer (150 mM NaCl, 50 mM Tris pH 8.0) and 2 mM CaCl2 for 16 hours at 37° C. Aggregated Q46 was pelleted by centrifugation for 5 minutes at 13,000 rpm in a bench top centrifuge and re-dissolved in the same volume of assay buffer. Test compounds were prepared by titration in DMSO at 11 concentrations from 33 μM to 1 nM. For the RBA, Q46 protein aggregates and test compounds were pre-incubated in assay buffer for 20 minutes at room temperature, in 140 μL/well in a 96-well plate (pp, round bottom). Then, ligand was added in 10 μL/well and incubated for 60 minutes at 37° C. Final assay concentrations were 1 μM to 30 pM test compound, 5 μM Q46 protein (equivalent monomer concentration) and 10 nM ligand [^3H3]MK-3328 (Harrision et al., ACS Med. Chem. Lett., 2 (2011), pp 498-502). Samples were transferred onto GF/B filter plates and washed 2× with 200 μL PBS using a Filtermate Harvester. After drying filter plates for 1 hour at 37° C., the back of the plates were sealed with foil and 30 μL/well scintillation fluid (Packard MicroScint 40) added, incubated for 15 minutes in the dark and counted in a TopCount reader. For analysis, replicate data from independent assay plates were normalized towards 0% and 100% inhibition using control wells of vehicle (0% inhibition) and 3 μM unlabelled MK-3328 (100% inhibition). IC50 values were determined with a sigmoidal inhibition model with four variables (top, bottom, slope, IC50) in a global fit using the normalized replicate data.
In the case of `COc1ccc(COc2ccc3oc(-c4cnn(C)c4)nc3c2)nc1`, the IC50 is less than 100 nM. As to `COc1ccc(COc2ccc3oc(-c4cncnc4)nc3c2)nc1`, the IC50 was less than 100 nM. To `COc1cnc(COc2ccc3oc(-c4ccncc4C#N)cc3c2)cn1` belongs less than 100 nM.
